Source: publication PMC11219766 (Nature Communications, 2024)

The chains behind the UniProt entries cited, without tags or fusion partners. Where a name states a change or a piece, a line headed by the entry shows the natural chain unless it says otherwise.
UniProt Q99828: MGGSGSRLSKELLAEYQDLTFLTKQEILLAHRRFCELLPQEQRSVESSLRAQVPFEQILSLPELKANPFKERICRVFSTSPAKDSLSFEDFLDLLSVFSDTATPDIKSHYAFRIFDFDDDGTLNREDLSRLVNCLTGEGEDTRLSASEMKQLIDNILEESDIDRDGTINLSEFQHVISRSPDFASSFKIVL

Experiments:
[1] = system: MDA453 cells; settings: MDA-453 cells, 5380 30 µM, trypan blue cell count (adherent + floating), independent experiments (Figure 3D source data)
Experimental: (§1) Cell death was assessed by trypan blue exclusion. […] Source data are provided as a Source Data file.

[2] = system: MDA-MB-436 cells; settings: MDA-436 cells, 5380 30 µM, trypan blue cell count (adherent + floating), independent experiments (Figure 3D source data)
Experimental: as §1

[3] = system: BT549 cells; settings: MDA-549 cells (so in the source), trypan blue cell count (adherent + floating) (Figure 3D source data)
Experimental: as §1

[4] = system: MDA-MB-231 cells
Experimental: as §1

[5] = system: MDA-MB-468 cells
Experimental: as §1

[6] = system: MDA-MB-461 cells; settings: for Initial screen in CIB1 depletion sensitive MDA-MB-461 cells: cell death measured at 24 h at 30 uM compound, column head prints no unit, percentage of dead cells per method
[7] = molecular target: CIB1 (Homo sapiens, UniProt Q99828); assay: biochemical
Experimental: as §1

[8] = system: TRAIL-R1/D5 expression; settings: three CIB1 depletion-sensitive cell lines
[9] = system: γH2AX

## Cc1cc(NC(=O)CSC2=Nc3ccccc3C(=O)C2CC2CCC(C(=O)NCc3ccccc3Cl)CC2)n[nH]1 (stereo not drawn) [compound 5380]
[1]
  % Cell Death: 9.006% and 9.952%
[2]
  % Death: 46.7681% and 52.6066%
[3]; 5380 15 µM as printed in the line
  % Death: 44.7433%
[3]; 5380 30 µM
  % Cell Death: 32.6923%
[4]; MDA-231 cells, 5380 30 µM, trypan blue cell count (adherent + floating), independent experiments (Figure 3D source data)
  % Cell Death: 11.054% and 7.197% and 6.887%
[5]; MDA-468 cells, 5380 30 µM as printed in the line, trypan blue cell count (adherent + floating), independent experiments (Figure 3D source data)
  % Cell Death: 55.8405% and 96.2818% and 86.0817%

## Cc1cc(NC(=O)CSc2nc3ccccc3c(=O)n2CC2CCC(C(=O)NCc3ccccc3Cl)CC2)n[nH]1 (stereo not drawn) [UNC10245433A, Cc1cc(NC(=O)CSc2nc3ccccc3c(=O)n2CC2CCC(CC2)C(=O)NCc2ccccc2Cl)n[nH]1]
[6]
  Initial screen in CIB1 depletion sensitive MDA-MB-461 cells: 5.2%

## COc1cccc(OCCCn2cc(C=C3C(=O)NC(=O)N(Cc4ccco4)C3=O)c3ccccc32)c1 [UNC10245380A, COc1cccc(OCCCn2cc(C=C3C(=O)NC(=O)N(Cc4ccco4)C3=O)c3ccccc23)c1]
[6]; CIB1-depletion-sensitive MDA-MB-461 cell line
  cell killing activity: significant cell killing activity
[6]
  Initial screen in CIB1 depletion sensitive MDA-MB-461 cells: 82%
[7]
  IC50: 8 µM
[8]
  death receptor TRAIL-R1/D5 expression: upregulates
[9]
  γH2AX (Western blot): upregulates γH2AX
[4]; 24 h at 30 uM compound
  MDA-MB-231 % cell death (±SD; n=3): 5.8 ± 1.4%
[4]; CIB1-depletion-insensitive MDA-MB-231 cell line
  cell killing activity: no activity
[5]; 24 h at 30 uM compound
  MDA-MB-468 % cell death (±SD; n=3): 85.43 ± 1.4%
[5]; CIB1-depletion-sensitive MDA-MB-468 cell line
  cell killing activity: significant cell killing activity
[5]; over 48 h
  dose-dependent cell death of MDA-468 TNBC cells: > 90%

## Cc1noc(C)c1COc1cccc(C(=O)Nc2cccc(S(=O)(=O)Nc3cccc(C(F)(F)F)c3)c2)c1 [UNC10245406A, Cc1noc(C)c1COc1cccc(c1)C(=O)Nc1cccc(c1)S(=O)(=O)Nc1cccc(c1)C(F)(F)F]
[6]
  Initial screen in CIB1 depletion sensitive MDA-MB-461 cells: 12%

Values joined by “and” are separate entries in the source; they are usually repeats but may differ in a detail not shown here. Equal values may be shown once.
